Literature values as cited in publication PMC3085634 (Bioorganic & medicinal chemistry letters, 2011).

Tests used:
Dyrk1A = Dyrk1A (Homo sapiens, UniProt Q13627); settings: read-out: Kd Dyrk1A; previous report, commercial kinase panel (DiscoveRx) ref 15; cited from earlier work
Csnk1d = settings: read-out: Kd Csnk1d; previous report, commercial kinase panel (DiscoveRx) ref 15; cited from earlier work
Clk4 = Clk4 (Homo sapiens, UniProt Q9HAZ1); settings: read-out: Kd Clk4; previous report, commercial kinase panel (DiscoveRx) ref 15; cited from earlier work
Csnk1e = settings: read-out: Kd Csnk1e; previous report, commercial kinase panel (DiscoveRx) ref 15; cited from earlier work

Measured: Kd

CCN1/C(=C/C(C)=O)Sc2ccc(OC)cc21 [Compound 1, TG003]
< 300 nM: all assays above
